{"sequences": {"note": "Protein sequences, listed by entry. Tags and fused reporters are not part of them.", "UniProt Q38C42, entry or part of it": "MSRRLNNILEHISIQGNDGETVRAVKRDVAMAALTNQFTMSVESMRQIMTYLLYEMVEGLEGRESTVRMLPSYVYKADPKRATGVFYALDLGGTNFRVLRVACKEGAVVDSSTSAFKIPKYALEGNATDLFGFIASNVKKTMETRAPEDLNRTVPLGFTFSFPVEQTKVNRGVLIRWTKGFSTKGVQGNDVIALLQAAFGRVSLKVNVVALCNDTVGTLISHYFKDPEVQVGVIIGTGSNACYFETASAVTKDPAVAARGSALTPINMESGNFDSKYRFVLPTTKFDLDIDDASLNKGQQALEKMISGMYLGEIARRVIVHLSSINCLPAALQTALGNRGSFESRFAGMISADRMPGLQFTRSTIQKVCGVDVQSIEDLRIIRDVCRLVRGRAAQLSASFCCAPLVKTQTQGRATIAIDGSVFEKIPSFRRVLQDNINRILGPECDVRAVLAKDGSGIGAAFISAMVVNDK"}, "source": "paper PMC2854128", "about": "“A Target-Based High Throughput Screen Yields Trypanosoma brucei Hexokinase Small Molecule Inhibitors with Antiparasitic Activity” (PLoS Neglected Tropical Diseases, 2010)", "format_in_all_cases": "biochemical", "key": {"[1]": {"biological_target": "T1, TbHK1 (Trypanosoma brucei brucei, UniProt Q38C42)", "experiment": "TbHK1 coupled enzyme HTS assay (G6PDH coupled, bacterially expressed rTbHK1)", "procedure": "For purification of bacterially expressed TbHK1 (rTbHK1), a previously described protocol was modified to increase yield. Briefly, a starter culture of E. coli M15(pREP) harboring pQE30 (Qiagen, Valencia, CA) with the TbHK1 gene cloned in frame of a 6-His tagging sequence was grown in ECPM1 [9] and then inoculated into a 5 L bioreactor (Biostat B, B. Braun Biotech International, Allentown, PA) and grown at 37°C. At OD600 between 3–5, the culture was induced with IPTG (0.8 mM), grown without supplement O2 (37°C, 16 hr), and cells collected by centrifugation (5000×g, 20 min, 4°C). The pellet was resuspended in lysis buffer (50 mM NaPO4, pH 8.1, 5 mM glucose, 150 mM NaCl, and 0.1% Tween) and lysed by using a cell disruptor (Constant Cell Disruption Systems, Sanford, NC). The resulting supernatant was applied (5 ml/min) to a 50 ml ProBind column (Invitrogen, Eugene, OR) on a FPLC (GE Lifesciences, Piscataway, NJ) and protein eluted by gradient (5 to 250 mM imidazole) in lysis buffer. […]\nTbHK1 assays were an adaptation of a coupled enzyme HK assay to a 384-well format, [10]. […] The resulting signal, which remained stable for up to 5 hr after addition of stop reagent, was collected on a Molecular Devices SpectraMax M5 (absorbance at OD340)(Sunnyvale, CA)."}, "[2]": {"biological_target": "T1, TbHK1", "experiment": "Kinetic analysis of TbHK1 inhibition with respect to ATP (Lineweaver-Burk)", "procedure": "(§1) Parasite lysates from BSF parasites were prepared by incubation (5 min on ice) of 1.5×10^7 cells in lysis buffer (0.1 M TEA, pH 7.4, and 0.1% Triton X-100) supplemented with 1 mM PMSF, 5 µg/ml leupeptin, and 100 µg/ml TLCK. In triplicate, cell equivalents (2×10^5) were incubated with increasing concentrations of inhibitor for 15 minutes at RT prior to initiation of the coupled reaction. In short, the 200 µl reactions included 50 mM TEA, pH 7.4, 33 mM MgCl2, 20 mM glucose, 5.25 mM ATP, 0.75 mM NADP, and 0.1 units of G6PDH, with kinetic analyses performed using KaleidaGraph 4.1 (Synergy Software, Reading, PA).\nAssays were performed as described for cell lystates (see Materials and Methods) with ATP concentrations varied."}, "[3]": {"biological_target": "T. brucei lysate-derived TbHK1 (Trypanosoma brucei brucei, UniProt Q38C42)", "experiment": "Inhibition assay of lysate-derived TbHK", "details": "read-out: IC50 against T. brucei lysate-derived TbHK1 enzymatic activity; 2×10^5 BSF cell equivalents, 15 min preincubation at RT", "procedure": "as §1"}}, "data": [{"smiles": "O=c1c2ccccc2sn1-c1ccccc1", "note": "[SID 17387000, 2-phenyl-1,2-benzisothiazol-3(2H)-one]", "values": [{"measurement": "IC50", "setting": "[1]", "value": "2 ± 0.5", "unit": "µM"}, {"measurement": "Ki", "setting": "[2]", "value": 6.89, "unit": "µM"}, {"measurement": "Nature of TbHK1 inhibition", "setting": "[2]; with respect to ATP", "value": "mixed inhibitors"}, {"measurement": "IC50", "setting": "[3]", "value": "1.2 ± 0.12", "unit": "µM"}]}]}
